For orientation: MIC means the least concentration at which growth counts as inhibited. A high value points to weaker potency.

The subject of this experiment is Escherichia coli. The note with it: ATCC 25922.

With GENTAMICIN, the MIC was determined as 0.5 µg/mL.

The record behind these values is ChEMBL document CHEMBL4145683, “Total Synthesis and Structure-Activity Relationships Study of Odilorhabdins, a New Class of Peptides Showing Potent Antibacterial Activity” (J Med Chem, 2018).
